Five molecules from ChEMBL document CHEMBL4420071, “Method for treating skin with retinoids and retinoid boosters” (2013) can be followed below.

Usually inhibition stands for the drop in the measured response relative to a control, in per cent.

For the first assay, the target named is T1, Lecithin retinol acyltransferase (Bos taurus) (UniProt Q9BGL2).
T1 sequence (whole entry): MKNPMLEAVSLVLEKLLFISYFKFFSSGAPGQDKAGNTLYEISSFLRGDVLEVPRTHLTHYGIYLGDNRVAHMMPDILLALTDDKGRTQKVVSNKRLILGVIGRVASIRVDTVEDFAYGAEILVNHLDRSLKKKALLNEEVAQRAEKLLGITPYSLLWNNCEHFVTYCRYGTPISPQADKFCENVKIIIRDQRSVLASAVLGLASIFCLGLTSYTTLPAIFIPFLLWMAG
Put plainly: Inhibition of LRAT in bovine RPE microsomes at 10 uM using retinol substrate in presence of Palmitoyl-CoA incubated for 5 mins by HPLC analysis relative to control.
Conditions: not given
In the case of `CCCCCCCCCCCCCCCC(=O)NCCO`, the inhibition came out at 12%.

Another assay has as its target T1, Lecithin retinol acyltransferase (Bos taurus). Particulars: at 100 µM.
On to `CCCCCCCCCCCCCCCC(=O)NCCO`, for which the inhibition was found to be 33%.

Turning to `C[C@H]1[C@H](C)CC[C@]2(C(=O)O)CC[C@]3(C)C(=CC[C@@H]4[C@@]5(C)CC[C@H](O)C(C)(C)[C@@H]5CC[C@]43C)[C@H]12`, the inhibition worked out at 28%.

`CC(C)=CCCC(C)CCO` (stereo unspecified) registered an inhibition of 0%.

In turn, `CC(C)(O)CCCC1=CCC(C=O)CC1` (stereo unspecified) showed an inhibition of 71%.

Molecule `CC1=CCC(C(C)(C)O)CC1` (stereo unspecified) gave an inhibition of 25%.
